From ChEMBL document CHEMBL1124652, “Resolved 6,7,8,9-tetrahydro-N,N-dimethyl-3H-benz[e]indol-8-amine: central dopamine and serotonin receptor stimulating properties” (J Med Chem, 1989)

Sequences of proteins named here, by UniProt entry; tags and fusion partners are left off.
UniProt P61169, whole entry: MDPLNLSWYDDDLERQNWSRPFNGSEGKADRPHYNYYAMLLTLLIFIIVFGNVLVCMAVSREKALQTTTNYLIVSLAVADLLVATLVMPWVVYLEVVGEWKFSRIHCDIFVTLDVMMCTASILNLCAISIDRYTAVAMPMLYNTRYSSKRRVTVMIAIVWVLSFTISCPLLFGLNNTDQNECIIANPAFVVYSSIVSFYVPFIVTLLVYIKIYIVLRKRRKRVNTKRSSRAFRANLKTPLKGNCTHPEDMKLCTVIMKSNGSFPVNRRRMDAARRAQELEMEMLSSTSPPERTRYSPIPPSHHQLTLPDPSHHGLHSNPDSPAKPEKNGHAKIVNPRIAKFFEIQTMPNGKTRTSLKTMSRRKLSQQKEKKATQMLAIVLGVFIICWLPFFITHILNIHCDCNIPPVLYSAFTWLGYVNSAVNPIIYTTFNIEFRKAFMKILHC

Molecular target: D(2) dopamine receptor (Rattus norvegicus, UniProt P61169)
Assay: In vitro binding activity against dopamine receptor D2 from homogenized rat brain, using [3H]spiperone as the radioligand.

Going from `CN(C)C1CCc2ccc3[nH]ccc3c2C1` (racemic) to `CN(C)[C@@H]1CCc2ccc3[nH]ccc3c2C1`, the IC50 falls from 1840 nM to 1050 nM (1.8-fold). The second is the more potent here.

In the case of `CN(C)[C@H]1CCc2ccc3[nH]ccc3c2C1`, the IC50 is reported as 9510 nM.
